# scFv variants of Ab-14 (heavy chain) against a SARS-CoV-2 spike peptide

From the AlphaSeq antibody data of Engelhart et al. 2022 (doi:10.1038/s41597-022-01779-4), copy in the FLAb collection.

Binding partner: SARS-CoV-2 spike HR2 peptide, sequence PDVDLGDISGINAS.

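Variants in AAYL49 differ from the parent at up to three CDR positions; double and triple changes were sampled at random. The scFvs were displayed on barcoded MATa yeast, the peptide on MATalpha yeast. The frequency of each diploid, read from paired DNA barcodes, reflects how well the two displayed proteins bind. The ratio of observed to expected reads was calibrated, replicate by replicate, on BCL2-family standards whose Kd was known from biolayer interferometry. Each pool was mated in three replicate cultures.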

Each scFv is VH, a (GGGGS)3 linker, VL, as in the parent Ab-14, and differs from it in the CDRs of the heavy chain only.
VH: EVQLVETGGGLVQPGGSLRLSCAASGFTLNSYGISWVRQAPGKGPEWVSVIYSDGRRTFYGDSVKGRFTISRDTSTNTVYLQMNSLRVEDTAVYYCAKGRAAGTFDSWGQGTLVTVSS
VL: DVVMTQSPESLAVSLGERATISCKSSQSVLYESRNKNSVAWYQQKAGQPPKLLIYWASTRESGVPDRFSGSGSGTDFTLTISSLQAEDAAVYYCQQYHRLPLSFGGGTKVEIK

Variants are written as CDR1, CDR2 and CDR3 of the heavy chain (limits as in the source). Parent: GFTLNSYGIS, VIYSDGRRTFYGDSVK, GRAAGTFDS.
Values are log10 of the apparent Kd in nM; lower means stronger binding.
The mean shown is taken over the replicates in which the pair was detected.
"ND" means that the variant was in the library but no mating with the target was seen in that replicate; the authors take this as a sign of poor binding, and no number exists.

| CDR-H1 | CDR-H2 | CDR-H3 | log10 Kd, replicates | mean, log10 nM | control signals |
|---|---|---|---|---|---|
| GFTLNSYGIS | VIYSDGRKTFYGDSVK | GRAAGTVDV | 5.73 3.91 4.49 | 4.71 | 1 of 9 (3.29) |
| GFTLNSYGIS | VIYSDGRRTDYGLSMK | GRAAGTFDS | ND ND ND | ND | 1 of 9 (3.04) |
| GFTLNVYWIS | VIYSDGRRTFYGDSVK | GRAAGTFRS | ND 3.84 ND | 3.84 | 1 of 9 (4.01) |
| GFTLNSYGFS | PIYSDGRRTFYGWSVK | GRAAGTFDS | 5.12 ND ND | 5.12 | 6 of 9 (4.12) |
| GFTLNFYGIS | VIYSDGRRTFYRDQVK | GRAAGTFDS | 3.28 2.40 3.36 | 3.01 | 2 of 9 (4.10) |
| GFTDNSYGRS | VIYSDGRRTFYGDSVK | GWAAGTFDS | ND 4.58 ND | 4.58 | 3 of 9 (5.09) |
| GFTLNSYGIS | VIYSDGRRTFYGDSVK | GRAFGTFDS | ND ND 5.09 | 5.09 | 1 of 9 (3.77) |
| IFTLNSYGIS | VIYSDFRRTFYGDSVK | GRAAGTFMS | 4.33 ND 4.27 | 4.30 | 0 of 9 |
| GFTLDSYGIG | VIYSDGRRTFYGDSVK | GRNAGTFDS | 3.74 5.07 3.57 | 4.13 | 4 of 9 (3.46) |
| GFTLNSYGIS | VIYSDGRRTFYGISVK | GRNAGTFSS | ND ND ND | ND | 0 of 9 |
| GKTLNSYGRS | VIYSDGRRTFYGDSVK | GRAAGTFDS | ND ND 4.34 | 4.34 | 1 of 9 (3.62) |
| GFTLNSYGIS | VIYSDGRRTFYLDRVK | GRAAGTHDS | ND ND ND | ND | 2 of 9 (4.00) |
| GFTLNLYGIS | VIYSDGRRTFYGDSVK | GRKAGTFDE | ND ND ND | ND | 0 of 9 |
| GVTLASYGIS | CIYSDGRRTFYGDSVK | GRAAGTFDS | 4.38 4.66 ND | 4.52 | 7 of 9 (4.09) |
| GFTLRSYGIA | VIYSDGRRTFYGDSVK | GRFAGTFDS | 4.08 ND ND | 4.08 | 3 of 9 (4.11) |
| GFTLNSYGIS | VIYSDGVRTFYVDSVK | GRAEGTFDS | ND ND ND | ND | 0 of 9 |
| GFTLNSYGCS | VIYSDGRRTFYGDSVK | GRGAWTFDS | ND ND ND | ND | 3 of 9 (4.01) |
| GYTLNSYGIS | LIYSDGRRTFYGDSVK | GRAAGTEDS | ND ND ND | ND | 0 of 9 |
| GFTLASYGIS | VIYSDGRRTFYGDDVK | MRAAGTFDS | ND ND ND | ND | 0 of 9 |
| GFTLNSYGIS | VIYSDGQRTFYGTSVK | ERAAGTFDS | 3.73 3.18 4.53 | 3.81 | 3 of 9 (4.12) |
| GFTLNSYHIS | VILSDGRRTFYGDSVK | GRASGTFDS | 3.92 ND ND | 3.92 | 3 of 9 (3.59) |
| GFTLNSYGIS | QIYSDGRRTFYGDSVK | GRAAFTFDS | ND ND ND | ND | 0 of 9 |
| WFTLNSYGIS | VIYSDGRRTMYGDSVK | GRAAGTFIS | ND ND ND | ND | 0 of 9 |
| GFTLNVYGIS | VIYSDGRRTFYGDSVK | FLAAGTFDS | ND 4.68 ND | 4.68 | 1 of 9 (5.27) |
| GFTHNEYGIS | MIYSDGRRTFYGDSVK | GRAAGTFDS | ND 3.91 5.80 | 4.85 | 2 of 9 (4.10) |
| GFTLNSYGIS | VIESDGRRTCYEDSVK | GRAAGTFDS | 5.47 3.15 ND | 4.31 | 0 of 9 |
| GFTLMSYSIS | VIKSDGRRTFYGDSVK | GRAAGTFDS | 5.66 ND ND | 5.66 | 2 of 9 (3.48) |
| GFTLNSYGIS | VIYFDGERTFYGDSVK | GRAAGTMDS | 4.58 ND ND | 4.58 | 0 of 9 |
| GFTLNSYGIS | GIYSDGRRTFYGVSVK | GRAAGTFVS | 3.55 3.26 5.01 | 3.94 | 1 of 9 (3.68) |
| GFTLNSYGTR | VIGSDGRRTFYGDSVK | GRAAGTFDS | 5.03 4.88 ND | 4.96 | 2 of 9 (3.86) |
| HFTLNSDGIS | VIESDGRRTFYGDSVK | GRAAGTFDS | 5.29 3.03 ND | 4.16 | 3 of 9 (4.18) |
| GFTLNSYGIS | VIYSDGRRFDTGDSVK | GRAAGTFDS | ND ND ND | ND | 0 of 9 |

Background: pairings of library AAYL49 with three empty control strains gave a value in 15% of cases (median 4.06, 5th percentile 2.83). Values in that range, when seen in few replicates, are hard to tell from nonspecific mating. For each scFv, signals with the empty controls are counted beside the result, with their mean in brackets.